Measurements reported in patent EP0742015A1, “Prodrugs for beta-lactamase and uses thereof” (Bristol-Myers Squibb Company, priority 1990, dated 1992).

Key:
[1] = tested on: Balb C nu/nu mice; experiment: Toxic effects in mice, i.v.; details: doses spaced 24 hr apart, repeated after 1 week
[2] = Stability in mouse plasma at 37° C, HPLC; details: 0.5 mM
[3] = Stability in IMDM cell growth medium at 37° C, HPLC; details: media used for tissue culture (IMDM), 0.5 mM

Nc1ccc(N(CCCl)CCCl)cc1
toxic dose [1]: 50 µg/injection | t1/2 [2]: 20 min | t1/2 [3]: 3 min
